Literature values as cited in publication PMC4798892.

Columns and labels:
[1] = target: Histone H3 (H3K4me0) (Homo sapiens) (UniProt P68431)
[2] = target: Histone H3 (H3T3ph) (Homo sapiens) (UniProt P68431)

Kd [1]: 0.82 µM
Kd [2]: 59.9 µM
Substance: DNMT3A ADD (from UniProt Q9Y6K1)
